Experimental data reported in patent publication US20060079453A1, “Hla binding peptides and their uses” (priority 2002, published 2006).
Read-outs that look alike come from different tables or passages of the source.

The chains behind the UniProt entries cited, without tags or fusion partners. Residues count along the entry.
UniProt P79483, 30-266: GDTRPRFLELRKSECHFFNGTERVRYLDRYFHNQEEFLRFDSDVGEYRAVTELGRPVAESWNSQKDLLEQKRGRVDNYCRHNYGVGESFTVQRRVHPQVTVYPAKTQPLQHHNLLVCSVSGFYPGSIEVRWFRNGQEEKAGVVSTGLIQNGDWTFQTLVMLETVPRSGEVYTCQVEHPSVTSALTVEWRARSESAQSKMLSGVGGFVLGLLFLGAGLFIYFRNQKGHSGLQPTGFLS
UniProt Q30154, 30-266: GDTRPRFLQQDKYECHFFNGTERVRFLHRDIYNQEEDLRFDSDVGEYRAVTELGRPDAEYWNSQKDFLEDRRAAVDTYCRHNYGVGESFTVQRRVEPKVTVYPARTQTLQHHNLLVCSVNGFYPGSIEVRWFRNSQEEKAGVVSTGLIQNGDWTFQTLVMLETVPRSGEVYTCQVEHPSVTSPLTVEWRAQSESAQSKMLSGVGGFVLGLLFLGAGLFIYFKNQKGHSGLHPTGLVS

Columns and labels:
[1] = biological target: HLA-DR DRB1*0405 (DR4) (Homo sapiens, UniProt P01903+P01911, A100R/A169T/D86S/F76Y/I96L/K127E/L162R/M171V/N62H/P40V/Q125Y/R42H/S133A/S149N/S66Y/V115G/V209L/W38E); assay: biochemical; assay type: binding
[2] = biological target: HLA-DR DRB1*1101 (DR11) (Homo sapiens, UniProt P01903+P01911, A100R/A169T/A87E/I96F/K41T/L162R/M171V/P40S/Q125H/Q178H/Q39Y/Q99D/R42S/S66Y/T262R/V115G/W38E); assay: biochemical; assay type: binding; details: DRB1 *1101
[3] = biological target: HLA-A*2301 (Homo sapiens, UniProt P04439, D101N/D140Y/D185E/E176V/E190D/F33S/G103R/G107R/H175R/I119L/I121M/I306V/K168Q/K335N/L105A/L300P/N151K/N90K/P307H/Q86E/Q94H/R106L/R138H/R89G/T104I/T345S/V100E/W191G/Y123F); assay: biochemical; assay type: binding
[4] = biological target: HLA-DR DRB1*0901 (DR9) (Homo sapiens, UniProt P01903+P01911, A100R/A103E/D57H/D86V/F55Y/F60I/F76Y/I96F/K127E/L162R/M171V/P40D/Q125H/Q99R/R33Q/R42F/S133A/S66N/T210M/V115G/W38K/Y107V/Y59G/Y89S); assay: biochemical; assay type: binding
[5] = biological target: HLA-DR DRB3*0101 (DR52) (Homo sapiens, UniProt P01903+P79483); assay: biochemical; assay type: binding
[6] = biological target: HLA-DR DRB1*0701 (DR7) (Homo sapiens, UniProt P01903+P01911, A100R/A102G/A103Q/D57E/D86V/E43K/F76Y/K127E/L162R/M171V/P40G/Q125H/Q99D/R33Q/R42Y/R54Q/S133A/S66F/T210M/V115G/Y107V/Y59L/Y89S); assay: biochemical; assay type: binding
[7] = biological target: HLA-DR DRB4*0101 (DR53) (Homo sapiens, UniProt P01903+P13762, G164S); assay: biochemical; assay type: binding; details: DRB4 *0101
[8] = biological target: HLA-DR DRB1*0101 (DR1) (Homo sapiens, UniProt P01903+P01911, A100R/D57E/F55L/F60I/F76Y/I96L/L162R/M171V/P40L/Q125E/R42F/V115G/Y59C); assay: biochemical; assay type: binding; details: DRB1 *0101
[9] = biological target: HLA-DR DRB1*0401 (DR4) (Homo sapiens, UniProt P01903+P01911, A100K/A169T/F76Y/I96L/K127E/L162R/M171V/N62H/P40V/Q125Y/R42H/S133A/S149N/S66Y/V115G/V209L/W38E); assay: biochemical; assay type: binding
[10] = biological target: HLA-DR DRB1*0802 (DR8) (Homo sapiens, UniProt P01903+P01911, A100R/A103L/A169T/F76Y/H45Y/I96F/K41T/L162R/M171V/P40S/Q125H/Q178H/Q39Y/Q99D/R218S/R42G/S66Y/V115G/W38E); assay: biochemical; assay type: binding
[11] = biological target: HLA-DR DRB5*0101 (DR51) (Homo sapiens, UniProt P01903+Q30154); assay: biochemical; assay type: binding; details: DRB5 *0101
[12] = biological target: HLA-A*0301 (Homo sapiens, UniProt P04439); assay: biochemical; assay type: binding
[13] = biological target: HLA-A*2902 (Homo sapiens, UniProt P04439, A270S/D101N/D185E/E176V/E277Q/E87Q/F33T/G231S/H175R/I121M/I218V/I322F/K168Q/L300P/L318F/M331R/P208A/P217A/Q86L/T323A/T345S/V100A/V358M); assay: MHC molecular binding / Capture assay, IC50: A*2902
[14] = biological target: HLA-A*3002 (Homo sapiens, UniProt P04439, D101N/D140H/D185E/E176R/F33S/G80R/H175R/K168Q/Q94H/R138E/R41S/V100E); assay type: binding
[15] = read-out: A*0301 binding affinity (expressed as an IC50)
[16] = read-out: A*2902 binding affinity (IC50)
[17] = read-out: A*2301 binding affinity (IC50)
[18] = read-out: A*3002 binding affinity (IC50)
[19] = read-out: Binding affinity to A*2902 (expressed as an IC50)

CC[C@H](C)[C@H](NC(=O)[C@H](CC(=O)O)NC(=O)[C@H](CCC(N)=O)NC(=O)[C@H](CC(C)C)NC(=O)[C@@H](NC(=O)[C@H](C)NC(=O)[C@@H](N)CCCCN)[C@@H](C)O)C(=O)N[C@H](C(=O)N[C@@H](CC(C)C)C(=O)N[C@@H](Cc1c[nH]cn1)C(=O)N[C@@H](CC(C)C)C(=O)N[C@@H](CCC(=O)O)C(=O)N1CCC[C@H]1C(=O)N[C@@H](CCC(N)=O)C(=O)N[C@@H](CC(N)=O)C(=O)O)C(C)C
IC50 ([1]; DRB1 *0405): 1170 nM

CC(C)C[C@H](NC(=O)[C@H](CCCCN)NC(=O)[C@H](CC(C)C)NC(=O)[C@@H](N)CCCCN)C(=O)N[C@@H](Cc1ccc(O)cc1)C(=O)N[C@H](C(=O)NCC(=O)N[C@@H](CCC(=O)O)C(=O)N[C@@H](C)C(=O)N[C@@H](CS)C(=O)N[C@@H](CCCNC(=N)N)C(=O)N[C@H](C(=O)NCC(=O)N[C@@H](CC(=O)O)C(=O)N[C@@H](CCCNC(=N)N)C(=O)O)[C@@H](C)O)[C@@H](C)O
IC50 [2]: > 17200 nM
IC50 ([1]; DRB1 *0405): 36300 nM

CC(C)C[C@H](NC(=O)[C@@H](NC(=O)[C@@H](NC(=O)[C@@H](NC(=O)[C@@H](NC(=O)[C@H](C)NC(=O)[C@H](CCC(N)=O)NC(=O)[C@H](Cc1ccc(O)cc1)NC(=O)[C@@H](N)CCCCN)C(C)C)[C@@H](C)O)[C@@H](C)O)[C@@H](C)O)C(=O)O
IC50 [3]: 16 nM

CC[C@H](C)[C@H](NC(=O)[C@H](CC(N)=O)NC(=O)[C@H](CCC(=O)O)NC(=O)[C@@H](N)CC(N)=O)C(=O)N[C@H](C(=O)N[C@H](C(=O)N1CCC[C@H]1C(=O)N[C@@H](CC(=O)O)C(=O)N[C@H](C(=O)N[C@@H](CCCCN)C(=O)N[C@H](C(=O)N[C@@H](CC(N)=O)C(=O)N[C@@H](Cc1ccccc1)C(=O)N[C@@H](Cc1ccc(O)cc1)C(=O)N[C@@H](C)C(=O)O)C(C)C)[C@@H](C)O)C(C)C)[C@@H](C)O
IC50 ([4]; DRB1 *0901): > 78900 nM
IC50 [5]: > 38200 nM
IC50 ([6]; DRB1 *0701): 42800 nM
IC50 [7]: > 38500 nM
IC50 ([1]; DRB1 *0405): > 18600 nM
IC50 [8]: > 24200 nM
IC50 ([9]; DRB1 *0401): > 21400 nM

CC[C@H](C)[C@H](NC(=O)[C@@H](N)CCCNC(=N)N)C(=O)N[C@@H](CO)C(=O)NCC(=O)N[C@H](C(=O)N[C@@H](CC(=O)O)C(=O)N[C@@H](CCCNC(=N)N)C(=O)N[C@@H](Cc1ccc(O)cc1)C(=O)N[C@@H](Cc1ccc(O)cc1)C(=O)O)C(C)C
IC50 [3]: > 49000 nM

CC[C@H](C)[C@H](NC(=O)[C@H](CCC(=O)O)NC(=O)[C@H](CCC(=O)O)NC(=O)[C@@H]1CCCN1C(=O)[C@@H](NC(=O)[C@H](CC(=O)O)NC(=O)[C@H](Cc1ccccc1)NC(=O)[C@H](CC(N)=O)NC(=O)[C@@H](N)CCCNC(=N)N)[C@@H](C)CC)C(=O)N[C@@H](CCCCN)C(=O)N[C@@H](CCC(N)=O)C(=O)N[C@@H](CC(C)C)C(=O)N[C@@H](CCC(N)=O)C(=O)N[C@@H](CCC(N)=O)C(=O)N[C@@H](Cc1ccccc1)C(=O)O
IC50 ([4]; DRB1 *0901): > 77300 nM
IC50 ([6]; DRB1 *0701): 47900 nM
IC50 [10]: > 144000 nM
IC50 ([1]; DRB1 *0405): > 114000 nM

CC(C)C[C@H](NC(=O)[C@H](CO)NC(=O)[C@@H](NC(=O)[C@H](CCC(N)=O)NC(=O)[C@@H]1CCCN1C(=O)[C@H](CC(N)=O)NC(=O)[C@H](CCC(N)=O)NC(=O)[C@H](CC(C)C)NC(=O)[C@H](Cc1ccccc1)NC(=O)[C@@H](N)CO)[C@@H](C)O)C(=O)N[C@@H](CS)C(=O)N[C@@H](Cc1ccccc1)C(=O)N[C@@H](CO)C(=O)N[C@@H](CCC(=O)O)C(=O)N[C@@H](CO)C(=O)O
IC50 ([4]; DRB1 *0901): 93900 nM
IC50 [5]: 93800 nM
IC50 [2]: > 15400 nM
IC50 [11]: > 9650 nM
IC50 ([6]; DRB1 *0701): 48600 nM
IC50 [10]: > 33300 nM
IC50 ([1]; DRB1 *0405): > 25800 nM

ATGDKCLKFY
IC50 [12, 15]: 194 nM

AVCRVGLLFY
IC50 [12, 15]: 77 nM

AYKDLCLVY
IC50 [13, 16]: 5200 nM
IC50 [3, 17]: 3040 nM
IC50 [14, 18]: 29 nM

FPTIPLSRLFDNAM
IC50 ([1]; read-out: DRB1 *0405): 923 nM

IYSKKRQEP
IC50 [13, 16]: 29400 nM
IC50 [3, 17]: 421 nM
IC50 [14, 18]: 727 nM

KEYSKISEF
IC50 [13, 16]: 73300 nM
IC50 [13, 19]: 73300 nM
IC50 [3, 17]: 138 nM

KVSDETWNY
IC50 [13, 16]: 230 nM
IC50 [13, 19]: 230 nM
IC50 [3, 17]: > 12000 nM
IC50 [14, 18]: 1.9 nM
IC50 ([14]; read-out: Binding affinity to A*3002 (expressed as an IC50)): 1.9 nM

LLIRGLRCQY
IC50 [12, 15]: 727 nM

LSHFLKEKGGLEGL
IC50 ([4]; read-out: DRB1 *0901): 23200 nM
IC50 ([6]; read-out: DRB1 *0701): 13700 nM
IC50 ([1]; read-out: DRB1 *0405): 2110 nM
IC50 ([9]; read-out: DRB1 *0401): 2440 nM

LVNSSQPWEPLQLNV
IC50 ([4]; read-out: DRB1 *0901): > 78900 nM
IC50 ([1]; read-out: DRB1 *0405): 19700 nM
IC50 ([9]; read-out: DRB1 *0401): > 21500 nM

MSCGRSSRTK
IC50 [12, 15]: 352 nM

NIVTFGCQGR
IC50 ([12]; read-out: A*0301 binding affinity (IC50)): 1510 nM

NYTPGPGIRF
IC50 [13, 16]: 8330 nM
IC50 [3, 17]: 37 nM
IC50 [14, 18]: > 9650 nM

RFHNIAGITF
IC50 [13, 16]: 635 nM
IC50 [3, 17]: 17 nM
IC50 [14, 18]: 1.4 nM

SFFMNKFYI
IC50 [13, 16]: 200 nM
IC50 [3, 17]: 11 nM
IC50 [14, 18]: 1020 nM

SFLQNPQTSLCCFRK
IC50 ([1]; read-out: DRB1 *0405): 1230 nM

VFLTFFDLF
IC50 [13, 16]: 1510 nM
IC50 [3, 17]: 12 nM
IC50 [14, 18]: 13600 nM

VYGETLEKE
IC50 [13, 16]: 91900 nM
IC50 [3, 17]: 14 nM
IC50 [14, 18]: 20000 nM

YYIDFAFRDF
IC50 [13, 16]: 47400 nM
IC50 [3, 17]: 19 nM
IC50 [14, 18]: 8490 nM
